Experimental data published in patent US20080031868A1, “HUMAN LYSOZYME MEDICINE, ITS MANUFACTURING METHOD AND APPLICATION THEREOF” (priority 2005, published 2008).

What was measured:
No. 04 Coronavirus [1] = assay type: cell-based; settings: prevention: drug before virus
No. 04 Coronavirus [2] = assay: Inhibition on No. 04 Coronavirus in HELA cells (CPE method); assay type: cell-based; settings: inhibition: drug added after virus

For `Nc1nc(O)c2ncn(COC(CO)CO)c2n1` [Ganciclovir, reference compound], the “therapeutic index (TI)” value (No. 04 Coronavirus [1]) was 256 and the “therapeutic index (TI)” value (No. 04 Coronavirus [2]) was 256.

Where two headings read alike, the source gives them in different places.
